Test results taken from patent publication US10323013B2, “Inhibitors of the IRE-1/XBP-1 pathway and methods of using thereof” (H. LEE MOFFITT CANCER CENTER AND RESEARCH INSTITUTE, INC., priority 2013, dated 2019).

Tests used:
Format in all cases: cell-based, human
[1] = tested on: XBP-1 mRNA splicing; assay: XBP-1 mRNA splicing by RT-PCR; details: 20 μM; for XBP-1 splicing (in words): 48 h
[2] = tested on: XBP-1s expression in Mino cells; assay: Inhibition of XBP-1s expression in Mino cells (immunoblots and densitometry); details: 20 μM, 24 h
[3] = tested on: XBP-1s expression in Jeko cells; assay: Inhibition of XBP-1s expression in Jeko cells (immunoblots and densitometry); details: 20 μM, 24 h

Compound | XBP-1 splicing (in words) ([1]; HBL2, Jeko, Mino and Z138 MCL cell lines) | expression of XBP-1s (in words) ([1]; MEC1, MEC2 and WaC3 cell lines) | XBP-1 splicing (in words) ([1]; mouse 5TGM1 and human RPMI-8226 MM cells) | suppression of XBP-1s expression (in words) [2] | suppression of XBP-1s expression (in words) ([2]; listed as C-C05) | suppression of XBP-1s expression (in words) [3] | suppression of XBP-1s expression (in words) ([3]; listed as C-C05)
O=c1oc2c(C3OCCCO3)c(O)ccc2c2c1CNCC2 [Compound 28, 7-(1,3-dioxan-2-yl)-8-hydroxy-3,4-dihydro-1H-chromeno[3,4-c]pyridin-5(2H)-one] | inhibited | suppressed | inhibited |  |  |  | 
CC(=O)N1CCc2c(c(=O)oc3c(C=O)c(O)ccc23)C1 [Compound 29, 3-acetyl-8-hydroxy-5-oxo-2,3,4,5-tetrahydro-1H-chromeno[3,4-c]pyridine-7-carbaldehyde] |  |  |  | potently suppress | strong suppression | potently suppress | strong suppression
CN1CCc2c(c(=O)oc3c(C=O)c(O)ccc23)C1 [Compound 30, 8-hydroxy-3-methyl-5-oxo-2,3,4,5-tetrahydro-1H-chromeno[3,4-c]pyridine-7-carbaldehyde] |  |  |  | potently suppress |  | potently suppress | 
